The values that follow come from paper PMC6270359, “Cholinesterase Enzymes Inhibitors from the Leaves of Rauvolfia Reflexa and Their Molecular Docking Study” (Molecules, 2013).

The chains behind the UniProt entries cited, without tags or fusion partners. Residues count along the entry.
UniProt P81908, whole entry: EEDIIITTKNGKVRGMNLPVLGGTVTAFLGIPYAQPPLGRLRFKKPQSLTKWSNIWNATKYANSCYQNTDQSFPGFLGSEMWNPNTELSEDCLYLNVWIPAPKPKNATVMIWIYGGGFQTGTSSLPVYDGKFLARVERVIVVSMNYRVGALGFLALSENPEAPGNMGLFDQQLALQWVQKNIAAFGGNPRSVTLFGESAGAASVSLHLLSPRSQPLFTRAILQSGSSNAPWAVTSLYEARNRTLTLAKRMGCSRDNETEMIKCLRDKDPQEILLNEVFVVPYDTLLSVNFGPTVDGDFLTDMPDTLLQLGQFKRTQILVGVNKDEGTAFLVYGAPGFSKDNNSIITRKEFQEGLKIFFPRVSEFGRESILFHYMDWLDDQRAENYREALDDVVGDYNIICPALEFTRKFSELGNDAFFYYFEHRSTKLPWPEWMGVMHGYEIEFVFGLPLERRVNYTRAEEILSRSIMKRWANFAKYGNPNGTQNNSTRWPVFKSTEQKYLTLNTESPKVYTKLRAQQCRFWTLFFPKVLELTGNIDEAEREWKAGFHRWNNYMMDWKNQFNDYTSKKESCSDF
UniProt O42275, 24-633: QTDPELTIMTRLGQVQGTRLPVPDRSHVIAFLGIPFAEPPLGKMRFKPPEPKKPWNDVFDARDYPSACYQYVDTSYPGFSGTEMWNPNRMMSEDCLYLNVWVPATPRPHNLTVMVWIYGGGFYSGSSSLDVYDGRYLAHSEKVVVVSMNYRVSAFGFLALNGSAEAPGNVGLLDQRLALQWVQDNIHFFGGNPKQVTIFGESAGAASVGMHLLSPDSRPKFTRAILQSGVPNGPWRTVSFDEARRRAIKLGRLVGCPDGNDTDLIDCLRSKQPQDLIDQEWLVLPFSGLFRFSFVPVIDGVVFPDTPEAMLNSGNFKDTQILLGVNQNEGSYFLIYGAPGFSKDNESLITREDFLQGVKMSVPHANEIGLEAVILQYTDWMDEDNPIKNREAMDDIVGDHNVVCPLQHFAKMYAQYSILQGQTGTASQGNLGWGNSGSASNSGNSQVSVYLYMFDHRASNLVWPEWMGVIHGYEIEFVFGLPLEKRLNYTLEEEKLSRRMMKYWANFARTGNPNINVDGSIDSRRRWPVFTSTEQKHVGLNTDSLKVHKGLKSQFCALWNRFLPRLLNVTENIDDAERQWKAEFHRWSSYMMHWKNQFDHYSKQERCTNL

SMILES strings stand for the structures. Values joined by “and” are separate entries in the source; they are usually repeats but may differ in a detail not shown here. Equal entries are not always repeated.

One may read the IC50 as the concentration that inhibits the measured activity by half.

Experiment [1] concerns the target T1, butyrylcholinesterase from equine serum (BChE) (Equus caballus, UniProt P81908).
T1 construct: purchased Sigma Chemicals (St. Louis, MO, USA); host or cells: equine serum
As to the kind of experiment: Butyrylcholinesterase inhibitory assay (Ellman's microplate assay). The note with it: chemical constituents; Mean ± SD (n = 3); read-out: BChE inhibition, IC50 (converted). The experiment is classed as biochemical. The procedure:
(§1) Acetylthiocholine iodide (ATCl), acetylcholinesterase from electric eel (AChE), 5,5'-dithiobis[2-nitrobenzoic acid] (DTNB), butyrylcholinesterase from equine serum (BChE), S-butyrylthiocholine chloride and physostigmine were purchased from Sigma Chemicals (St. Louis, MO, USA). All the other reagents used were of analytical grade.
(§2) Cholinesterase enzymes inhibitory potential of test samples was evaluated using Ellman’s microplate assay following the method described by Ahmed and Gilani with slight modifications. Physostigmine was used as positive control. Test samples and physostigmine were prepared in dimethyl sulfoxide (DMSO). The concentration of DMSO in final reaction mixture was 1%. At this concentration, DMSO has no inhibitory effect on both acetylcholinesterase and butyrylcholinesterase enzymes.
(§3) For acetylcholinesterase (AChE) inhibitory assay, 140 μL of 0.1 M sodium phosphate buffer (pH 8) was first added to a 96-wells microplate followed by 20 μL of test samples and 20 μL of 0.09 units/mL acetylcholinesterase enzyme. […] After the initiation of enzymatic reaction, absorbance of the coloured end-product was measured for 15 min using Tecan Infinite 200 Pro Microplate Spectrophotometer (Männedorf, Switzerland) at 417 nm. […]
On the technique in general: Ellman's reagent forms a yellow product with free thiols.

Experiment [2] addresses T2, acetylcholinesterase from electric eel (AChE) (Electrophorus electricus, UniProt O42275).
T2 construct: purchased Sigma Chemicals (St. Louis, MO, USA)
As to the kind of experiment: Acetylcholinesterase inhibitory assay (Ellman's microplate assay). The experiment is classed as biochemical. The note with it: chemical constituents; Mean ± SD (n = 3); read-out: AChE inhibition, IC50 (converted). Here is the method:
as §1, §2, §3

Regarding `CNC(=O)Oc1ccc2c(c1)[C@]1(C)CCN(C)[C@@H]1N2C` [Physostigmine, physostigmine, reference compound], the half-inhibitory concentration (IC50) is 588 nM and 590 nM in experiment [1]; 167 nM and 170 nM in experiment [2].
